A word on the IC50: it is the concentration at which inhibition is half-maximal. Read a high IC50 as weaker potency in that assay.

In this assay the target is T1, thrombin (THR, FIIα) (Homo sapiens, UniProt P00734).
T1 construct: gene F2; human recombinant THR
The assay can be described thus: chromogenic substrate S-2238 assay; also affinity ultrafiltration-HPLC with active vs denatured enzyme. In kind it is biochemical.

Consider `CC1CNc2c(cccc2S(=O)(=O)N[C@@H](CCCNC(=N)N)C(=O)N2CC[C@@H](C)C[C@@H]2C(=O)O)C1` (stereo partly shown) [argatroban], for which the IC50 turned out to be 0.243 µM.

These data come from paper PMC8703108, “Identifying of Anti-Thrombin Active Components From Curcumae Rhizoma by Affinity-Ultrafiltration Coupled With UPLC-Q-Exactive Orbitrap/MS” (Frontiers in Pharmacology, 2021).
